Measured values from patent US20020095001A1, “Methods and compositions for topical treatment of damaged tissue using reactive oxygen metabolite production or release inhibitors” (priority 1999, published 2002).

Assays:
herpes genitalis = conditions: 0.07% by weight foam (vaginal) and cream (external), three times a day for five days
Experimental: Using an applicator, the foam is injected into the vaginal space to treat herpetic lesions therein. The cream is applied topically to external lesions. The cream and foam are applied three times a day for a period of five days.

herpes labialis = conditions: 0.07% by weight lipstick, three times a day for five days
From the text: The treatment consists of topical application three times a day for a period of five days.

Substance: histamine diphosphate
- untoward reactions (herpes genitalis): no untoward reactions
- untoward reactions (herpes labialis): no untoward reactions
